AlphaSeq binding of Ab-14 heavy chain variants to a spike HR2 peptide

Antigen: PDVDLGDISGINAS, a 14-residue peptide of the SARS-CoV-2 spike HR2 region.

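The parent was found by panning a naive human phage display library on the peptide. Designed CDR sequences, proposed from the first random library and measured here. Their group label is 14H_En_Gibbs (En: ensemble of fine-tuned language models; Gibbs: Gibbs sampling). AlphaSeq pools MATa yeast showing the antibodies with MATalpha yeast showing the peptide. The frequency of each diploid, read from paired DNA barcodes, reflects how well the two displayed proteins bind. Scores were corrected for input abundance and mapped to Kd with protein pairs of known affinity run in the same pool. Each pool was mated in six replicate cultures.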

Each scFv is VH, the linker GGGGSGGGGSGGGGS, VL, as in the parent Ab-14, and differs from it in the CDRs of the heavy chain only.
VH: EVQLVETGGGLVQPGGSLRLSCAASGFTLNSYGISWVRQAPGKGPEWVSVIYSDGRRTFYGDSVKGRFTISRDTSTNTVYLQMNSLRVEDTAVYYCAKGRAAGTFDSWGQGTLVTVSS
VL: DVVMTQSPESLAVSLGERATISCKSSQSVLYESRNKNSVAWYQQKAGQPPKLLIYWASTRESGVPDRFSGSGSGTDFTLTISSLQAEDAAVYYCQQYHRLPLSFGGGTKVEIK

Each variant is given by its three heavy chain CDRs, as the data file delimits them; those of the parent are GFTLNSYGIS, VIYSDGRRTFYGDSVK, GRAAGTFDS.
Values are log10 of the apparent Kd in nM; lower means stronger binding.
A mean of the replicates is given; it leaves out those without a signal.
Where no diploid with the target was found in that replicate, the entry reads "nd": below detection, most likely a poor binder, though not proof of it.
In the paper, a design with two or fewer of six values counts as a poor binder.
A sequence measured in both rounds can read differently, since the two assays cover different ranges.
As a blank, each scFv also met three strains without target: over all heavy chain designs, 1% of these pairings were detected, typically at 2.08 and seldom below 0.84. The control count says in how many pairings with the empty strains this scFv gave a signal, with their mean in brackets.

CDR-H1,CDR-H2,CDR-H3,"replicates, log10 nM","log10 Kd (nM), mean",signal with controls
GFYLNEYGIS,VIYADGIRSVYANKVK,GNGAGTLDD,nd nd nd nd nd nd,nd,0/18
GFSLDEYGIS,VIYADGKRQVYANTVK,GNKTMTFDI,nd nd nd nd nd 1.53,1.53,0/18
GGDIQEYGIS,VIYADGQRASYADAVK,GNIGGIFSD,1.32 1.41 1.81 2.02 1.93 2.17,1.77,0/18
GFDLEEYGIS,VIYADGHRSKYANSVK,GGQVDFAIL,nd nd nd nd nd nd,nd,0/18
GFDIEEMGIS,VIYADGIRQAYKNDVK,GTNVGRFSV,nd nd nd nd nd nd,nd,0/18
GKKLDEYGIS,VIYADGQRAAYTDDVK,GLQNNVQIV,nd nd nd nd nd nd,nd,0/18
GFDINEYGVS,VIYADGMRSSYQDKVK,GSNGSLFDV,nd nd 3.63 nd 3.29 nd,3.46,2/18 (2.40)
GFSIDEYGIS,VIYADGLRQHYTNAVK,GEAAGTFDM,0.26 0.71 0.70 0.50 0.40 0.50,0.51,0/18
GFDLSEYGIS,VIYADGRRAYYTDAVK,GEVEGMLMV,nd nd nd nd nd nd,nd,0/18
GFDLNEYGVS,VIYADGIRTAYADSFK,GDVGVALFQ,nd nd nd nd nd nd,nd,1/18 (1.62)
GFDIEEYGIS,VIYADGQRTVYADDVK,GIAKGSSLT,nd nd nd 1.57 nd nd,1.57,0/18
GFSLDEYGIS,VIYADGIRRVYVDKVK,GNYGGDFIE,1.22 1.27 0.66 0.44 0.75 0.34,0.78,0/18
GFDLEEYGIS,VIYADGMRQYYVNSVK,GTANDFDML,nd nd nd nd nd nd,nd,0/18
GFDLQEYGIS,VIYADGKRRAYENKVK,GGSVRSVVI,nd nd nd nd nd nd,nd,0/18
GFDLDEQGIS,VIYADGQRTAYADQVK,GMQGVIART,-0.25 -0.44 -0.50 -0.54 -0.78 -0.60,-0.52,0/18
GFQINEYGIS,VIYADGLRAAYSQDVK,GQDTGNFVD,nd nd nd nd nd nd,nd,0/18
GFNLDEYGIS,VIYADGYRRMYIDAVK,GMNSGFGGT,nd nd nd nd nd nd,nd,0/18
GKDLDEYGIS,VIYADGKRTHYVENVK,GQFGGTLLD,2.61 nd nd nd nd nd,2.61,0/18
GFDIQEYGIS,VIYADGYRTAYKQKVK,GQIAGGQFD,nd nd nd nd nd nd,nd,0/18
GFDLNEYGIS,VIYADGKKTGFVNTVK,GESGGNFDD,nd nd nd nd nd nd,nd,0/18
GFSLDEYGIS,VIYADGVRTQYHPKVK,GLGGFIFGL,nd nd nd nd nd nd,nd,0/18
GKSLDEYGIS,VIYADGMRTFYANTVK,GEDGGFYNQ,nd nd nd nd nd nd,nd,0/18
GFSIDEYGIS,VIYADGLRQHYANAVK,GEIAGTFDT,nd nd 1.39 1.16 nd 1.08,1.21,0/18
GFDIEEYGIS,VIYADGQRTMYTPNVK,GNITGLAMT,nd nd nd nd 0.77 nd,0.77,0/18
GFDLNEYGIS,VIYADGRRTAYVQSVK,GKNNVVDSV,nd nd nd nd nd nd,nd,1/18 (2.89)
GFDVDEYGIS,VIYADGTRVAYQDSVK,GYINVVSIV,nd nd nd nd nd nd,nd,0/18
GFDIDEFGIS,VIYADGSRQVYQDNVK,GVGTGTFTL,nd nd nd nd nd nd,nd,0/18
GFDLNEYGVS,VIYADGFRTSYTDSVK,GNIFDLSMA,nd nd nd nd nd nd,nd,0/18
GMGLSEYGIS,VIYADGMRTYYDNSVK,GALAGTFDE,0.71 1.95 0.40 0.12 1.87 0.31,0.89,0/18
GFNLNEVGIS,VIYADGSRSAYVDNVK,GGVVAVDFV,nd nd nd nd nd nd,nd,0/18
GKDLEEYGIS,VIYADGVRTSYVDQVK,GESGGAYYT,nd nd nd nd nd nd,nd,0/18
GFGINEYGIS,VIYADGMRSFYANSVK,GAHGGYMVW,nd nd nd nd nd nd,nd,0/18
GNSLDEYGIS,VIYADGMRTAYTDDVK,GVVSMTLVD,nd nd nd nd nd nd,nd,1/18 (2.34)
GFQLDEYGIS,VIYADGMRAEYKNSVK,GNYGIVFTV,nd nd nd nd nd nd,nd,0/18
GDGLQEYGIS,VIYADGFRTSYANSVK,GTGAGIFMV,nd nd nd nd nd nd,nd,0/18
GKDIEEYGIS,VIYADGMRQAYLDSVK,GNVVGSGSF,nd nd nd nd nd nd,nd,0/18
GFDLNEYGIS,VIYADGMRTAYEDKVK,GTFLNAGWL,0.63 0.51 0.93 1.31 1.40 1.08,0.98,0/18
GFDLDEYGIS,VIYADGRRSAYHDSFK,GQLGGVSFV,nd nd nd nd nd nd,nd,0/18
GYDLNEYGIS,VIYADGRRAAYIDDVK,GNVNDGVLV,nd nd nd nd nd nd,nd,3/18 (2.23)
GFQLEEMGIS,VIYADGVRTAYSSKVK,GINGDKFDV,nd nd nd nd nd nd,nd,0/18
GFNMDEYGIS,VIYADGRRTFYTESVK,GVVTISGKV,nd nd nd nd nd nd,nd,0/18
GFNINEYGIS,VIYADGTKTAYANTVK,GKYVGTFVD,nd nd nd nd nd nd,nd,1/18 (1.84)
GFNLDEYGIS,VIYADGMRTFVSNAVK,GHNADFRFV,nd nd nd nd nd nd,nd,0/18
GFQLNEYGIS,VIYADGKRSEYQDSVK,GGINSSFSV,nd nd nd nd nd nd,nd,0/18
GFSLNEYGIS,VIYADGKRNFYADSVK,GLHSGFFDI,nd nd 4.19 nd nd nd,4.19,0/18
EFDLQEYGIS,VIYADGKREAYKDDFK,GQVAGTFDE,0.51 0.47 0.57 0.64 0.16 1.51,0.64,1/18 (1.39)
GEDLDEYGIS,VIYADGLRTAYADNFK,GHLGGQFDM,nd 1.34 3.02 nd 1.90 2.25,2.13,0/18
GPGLQEYGIS,VIYADGIRSAYSDDVK,GQNAGHFLV,nd 1.70 nd nd nd nd,1.70,0/18
GFDINEYGVS,VIYADGMRSYYQDKVK,GSLGALFDV,nd nd nd nd nd nd,nd,0/18

6 of these entries, quoted again:

| CDR-H1 | CDR-H2 | CDR-H3 | replicates, log10 nM | log10 Kd (nM), mean | signal with controls |
|---|---|---|---|---|---|
| GFSLNEYGIS | VIYADGKRNFYADSVK | GLHSGFFDI | nd nd 4.19 nd nd nd | 4.19 | 0/18 |
| GKDLDEYGIS | VIYADGKRTHYVENVK | GQFGGTLLD | 2.61 nd nd nd nd nd | 2.61 | 0/18 |
| GFDIEEYGIS | VIYADGQRTMYTPNVK | GNITGLAMT | nd nd nd nd 0.77 nd | 0.77 | 0/18 |
| GMGLSEYGIS | VIYADGMRTYYDNSVK | GALAGTFDE | 0.71 1.95 0.40 0.12 1.87 0.31 | 0.89 | 0/18 |
| GFDIDEFGIS | VIYADGSRQVYQDNVK | GVGTGTFTL | nd nd nd nd nd nd | nd | 0/18 |
| GFNMDEYGIS | VIYADGRRTFYTESVK | GVVTISGKV | nd nd nd nd nd nd | nd | 0/18 |

Values reported by Li et al. 2023, doi:10.1038/s41467-023-39022-2 (FLAb copy).